{
  "sequences": {"note": "Chains of the proteins cited; added tags and fusions are not shown.", "UniProt Q96SB4, whole entry": "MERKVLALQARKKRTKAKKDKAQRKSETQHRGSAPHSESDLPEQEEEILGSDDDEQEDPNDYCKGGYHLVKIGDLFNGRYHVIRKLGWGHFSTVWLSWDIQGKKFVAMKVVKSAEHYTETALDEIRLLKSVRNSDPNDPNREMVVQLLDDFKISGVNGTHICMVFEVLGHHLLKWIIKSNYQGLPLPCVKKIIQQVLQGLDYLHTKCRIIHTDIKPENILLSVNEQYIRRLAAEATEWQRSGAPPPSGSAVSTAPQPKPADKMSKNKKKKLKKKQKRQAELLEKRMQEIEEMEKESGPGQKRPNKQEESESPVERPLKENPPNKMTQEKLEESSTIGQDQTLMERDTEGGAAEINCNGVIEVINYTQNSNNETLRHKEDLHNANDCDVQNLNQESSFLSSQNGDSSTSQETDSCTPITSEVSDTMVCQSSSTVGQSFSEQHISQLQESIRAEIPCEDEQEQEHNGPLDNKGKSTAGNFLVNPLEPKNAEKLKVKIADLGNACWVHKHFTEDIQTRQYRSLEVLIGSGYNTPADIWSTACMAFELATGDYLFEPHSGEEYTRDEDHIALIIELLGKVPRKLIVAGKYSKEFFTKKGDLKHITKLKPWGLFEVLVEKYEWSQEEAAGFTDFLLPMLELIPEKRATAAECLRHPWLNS"},
  "source": "paper PMC7725506",
  "about": "“Functional Diversification of SRSF Protein Kinase to Control Ubiquitin-Dependent Neurodevelopmental Signaling” (Developmental Cell, 2020)",
  "key": {"RNF12 phospho-Ser214": {"tested_on": "RNF12 phospho-Ser214", "experiment": "RNF12 SR-motif phosphorylation in mESCs, immunoblotting for RNF12 phospho-Ser214 and total RNF12", "type": "cell-based, mouse", "settings": "10 μM, 4 h"}, "SRPK1": {"molecular_target": "SRPK1 (Homo sapiens, UniProt Q96SB4)", "type": "biochemical", "settings": "in vitro", "method": "Cells were lysed, and 1.5 mg of protein immunoprecipitated with 2 μg of SRPK1 or SRPK2 antibodies (BD Biosciences). Immunoprecipitates were then washed with lysis buffer supplemented with 500 mM NaCl and half of the sample was resuspended in loading buffer. The remainder was subjected to in vitro phosphorylation assay containing 0.5 μg RNF12 and 2 mM ATP in kinase buffer (50 mM Tris-HCl [pH 7.5], 0.1 mM EGTA, 10 mM MgCl2, 2 mM DTT) and incubated at 30°C for 30 min. […] For radioactive in vitro kinase assays, reactions were supplemented with 1 μCi γ-^32P ATP. Reactions were incubated at 30°C for 30 min in presence or absence of inhibitor as indicated and samples subjected to polyacrylamide electrophoresis and immunoblot or Coomassie blue staining and signal detected via ECL, infrared detection or autoradiography.\nSupplemental Figure Legends\n(Related to Figure 1). (A) Wild-type (WT) mESCs were analysed for protein copy number by absolute quantitative proteomics. […]\nData are represented as mean ± S.E.M. (n=3). […] ND = not detected. (B) Inhibition of RNF12 phosphorylation in vitro by SRPK1 and SRPK2 in the presence of varying concentrations of the indicated SRPK inhibitors was determined by immunoblotting for RNF12 phospho-Ser214 (Left). […] Immunoblots were quantified to generate SRPK inhibitor dose-response curves for inhibition of RNF12 phosphorylation by SRPK1 and SRPK2 in vitro (Right). […]"}, "RNF12 SR-motif [1]": {"tested_on": "RNF12 SR-motif", "experiment": "RNF12 SR-motif phosphorylation in mESCs by phos-tag immunoblotting", "type": "cell-based, mouse"}, "RNF12 SR-motif [2]": {"tested_on": "RNF12 SR-motif", "settings": "hiPSCs (CHiPS4 cell line), 10 μM, 4 h", "method": "Phos-tag analyses were performed by loading protein samples containing 10 mM MnCl2 in 8% polyacrylamide gels containing 50 μM Phos-tag reagent (MRC-PPU reagents and services) and 0.1 mM MnCl2. After electrophoresis, gels were washed three times for 10 mins in Transfer buffer (48 mM Tris, 39 mM Glycine, 20% Methanol) supplemented with 20 mM EDTA. Proteins were then transferred to Nitrocellulose membranes, blocked and probed with the indicated antibodies. All protein signals were quantified using Image Studio (LI-COR Biosciences) or Image Lab software (Bio-Rad). Primary antibodies are listed in the Key Resource Table."}},
  "note": "Like-named read-outs stand apart in the source and are kept apart here.",
  "data": [
    {"compound": "CCc1cc2c(cc1-c1cccc(S(=O)(=O)F)c1)C(C)(C)c1[nH]c3cc(C#N)ccc3c1C2=O", "note": "[SRPKIN-1]", "values": [
      {"measurement": "RNF12 phospho-Ser214/total ratio", "setting": "RNF12 phospho-Ser214", "value": "greatest impact"},
      {"measurement": "fold more potent toward SRPK1 than SPHINX31", "setting": "SRPK1", "value": "~10", "unit": "fold"},
      {"measurement": "fold more potent toward SRPK1 than SRPIN-340", "setting": "SRPK1", "value": "~300", "unit": "fold"},
      {"measurement": "time to RNF12 SR-motif de-phosphorylation (within)", "setting": "RNF12 SR-motif [1]; HA-RNF12 expressing Rlim-/y mESCs, 10 μM", "value": "1 to 2", "unit": "h"},
      {"measurement": "RNF12 SR-motif phosphorylation in washout assays", "setting": "RNF12 SR-motif [1]; mESCs pre-treated with 5 μM for 3 h, media changed, further 5 h", "value": "inhibited"},
      {"measurement": "RNF12 SR-motif phosphorylation (phos-tag)", "setting": "RNF12 SR-motif [1]; mESCs, 10 μM, 4 h", "value": "major dephosphorylation"},
      {"measurement": "RNF12 SR-motif phosphorylation (phos-tag)", "setting": "RNF12 SR-motif [2]", "value": "promotes RNF12 SR-motif dephosphorylation"}
    ]}
  ]
}
